A short description of this data set: in vivo. The conditions noted are these: mouse, iv.

With `CCN(CC)C(=O)COc1cc2c(O)c3c(O)c(C)c4c(c13)C(=O)C(C)(OC=CC(OC)C(C)C(OC(C)=O)C(C)C(O)C(C)C(O)C(C)C=CC=C(C)C(=O)N2)O4` (stereo not shown) [rifamycin B diethylamide, reference compound], the LD50 amounted to 340 mg/kg.

(Values after patent publication US4188321A, “25-Desacetyl rifamycins” (Gruppo Lepetit S.p.A., priority 1966, dated 1980).)
